Structures are written as SMILES.

One compound from patent US20040224958A1, “Pyridopyrimidinone derivatives for treatment of neurodegenerative disease” (priority 2000, published 2004) can be followed below.

`O=c1ccc2cnc(Nc3ccccc3)nc2n1CCCOCc1ccccc1` [Example 38, 8-(3-Benzyloxypropyl)-2-phenylamino-8H-pyrido[2,3-d]pyrimidin-7-one]: the melting point was in the range of 133 to 135 °C.
